ChEMBL document CHEMBL5584250, “5-HT6 receptor neutral antagonists protect astrocytes: A lesson from 2-phenylpyrrole derivatives” (Eur J Med Chem, 2024)

Amino acid sequences for entries named in this document (tags omitted). A change or cut given only in a name is not applied to a line headed by its entry.
UniProt P50406, whole entry: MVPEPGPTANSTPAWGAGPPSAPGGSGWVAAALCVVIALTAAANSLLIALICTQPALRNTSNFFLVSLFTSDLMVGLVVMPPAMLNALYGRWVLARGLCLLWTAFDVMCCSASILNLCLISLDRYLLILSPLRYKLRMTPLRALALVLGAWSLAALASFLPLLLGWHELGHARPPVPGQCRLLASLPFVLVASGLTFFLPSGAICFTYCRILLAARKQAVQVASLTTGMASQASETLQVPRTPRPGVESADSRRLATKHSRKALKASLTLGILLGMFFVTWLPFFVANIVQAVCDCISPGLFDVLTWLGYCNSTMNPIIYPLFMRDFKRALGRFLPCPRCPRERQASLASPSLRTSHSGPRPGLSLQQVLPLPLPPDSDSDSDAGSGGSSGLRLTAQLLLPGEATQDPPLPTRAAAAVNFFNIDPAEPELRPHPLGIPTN
UniProt Q9Y5N1: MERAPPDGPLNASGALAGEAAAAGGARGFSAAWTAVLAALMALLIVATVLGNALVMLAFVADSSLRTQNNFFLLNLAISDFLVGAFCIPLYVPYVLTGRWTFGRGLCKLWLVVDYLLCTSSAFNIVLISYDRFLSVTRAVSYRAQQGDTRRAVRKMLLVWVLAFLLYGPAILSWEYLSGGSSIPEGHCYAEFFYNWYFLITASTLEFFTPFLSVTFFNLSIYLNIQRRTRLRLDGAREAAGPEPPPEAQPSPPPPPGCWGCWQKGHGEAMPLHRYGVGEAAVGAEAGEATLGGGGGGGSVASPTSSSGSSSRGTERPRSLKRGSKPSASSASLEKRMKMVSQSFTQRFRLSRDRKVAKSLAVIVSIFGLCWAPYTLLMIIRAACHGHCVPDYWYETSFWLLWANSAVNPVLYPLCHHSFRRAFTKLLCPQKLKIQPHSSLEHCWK
UniProt Q99720, whole entry: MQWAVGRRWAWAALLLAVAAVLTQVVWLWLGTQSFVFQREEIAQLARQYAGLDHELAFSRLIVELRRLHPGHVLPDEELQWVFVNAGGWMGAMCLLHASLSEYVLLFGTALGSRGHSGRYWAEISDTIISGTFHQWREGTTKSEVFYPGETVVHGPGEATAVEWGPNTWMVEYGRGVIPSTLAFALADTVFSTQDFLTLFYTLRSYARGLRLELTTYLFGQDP
UniProt P35462, whole entry: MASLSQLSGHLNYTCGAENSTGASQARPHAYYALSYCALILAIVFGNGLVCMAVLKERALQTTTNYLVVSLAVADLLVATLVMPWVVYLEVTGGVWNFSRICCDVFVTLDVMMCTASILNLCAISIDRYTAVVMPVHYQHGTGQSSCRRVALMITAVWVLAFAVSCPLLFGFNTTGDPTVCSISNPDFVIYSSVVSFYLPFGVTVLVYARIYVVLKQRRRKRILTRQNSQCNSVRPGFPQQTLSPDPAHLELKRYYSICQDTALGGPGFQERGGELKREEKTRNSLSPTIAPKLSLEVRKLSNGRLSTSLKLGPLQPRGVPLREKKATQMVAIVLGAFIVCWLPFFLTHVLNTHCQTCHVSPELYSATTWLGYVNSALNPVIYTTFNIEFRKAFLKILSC

Columns and labels:
[1] = test system: PC-12; test: Cytoprotective activity against amyloid beta (25 to 35 residues)-induced toxicity in rat PC-12 cells assessed as increase in cell viability at […] pretreated for 3 hrs followed by replacement with fresh media and amyloid beta (25 to 35 residues) addition and measured after 24 hrs by MTT assay; type: functional, cell-based; settings: dose 0.25 µM
[2] = test system: C8-D1A; test: Cytoprotective activity against rotenone-induced toxicity in mouse C8D1A cells assessed as increase in cell membrane integrity at […] pretreated for 3 hrs followed by replacement with fresh media and rotenone addition and measured after 24 hrs by cytotox-glo assay; type: functional, cell-based; settings: dose 0.25 µM
[3] = test system: Astrocyte; test: Cytoprotective activity against rotenone-induced toxicity in human astrocytes assessed as increase in cell membrane integrity at […] pretreated for 3 hrs followed by replacement with fresh media and rotenone addition and measured after 24 hrs by cytotox-glo assay; type: functional, cell-based; settings: dose 0.25 µM
[4] = test system: SH-SY5Y; test: Cytoprotective activity against 6-OHDA induced toxicity in human SH-SY5Y cells assessed as increase in cell viability at […] pretreated for 3 hrs followed by replacement with fresh media and 6-OHDA addition and measured after 24 hrs by MTT assay; type: functional, cell-based; settings: dose 0.25 µM
[5] = test system: Astrocyte; test: (§1) Cytoprotective activity against rotenone-induced toxicity in human astrocytes assessed as increase in cell viability at […] pretreated for 3 hrs followed by replacement with fresh media and rotenone addition and measured after 24 hrs by MTT assay; type: functional, cell-based; settings: dose 0.25 µM
[6] = test system: C8-D1A; test: Cytoprotective activity against rotenone-induced toxicity in mouse C8D1A cells assessed as increase in cell viability at […] pretreated for 3 hrs followed by replacement with fresh media and rotenone addition and measured after 24 hrs by MTT assay; type: functional, cell-based; settings: dose 0.25 µM
[7] = test system: Astrocyte; test: (§2) Cytoprotective activity against 6-OHDA-induced toxicity in human astrocytes assessed as increase in cell viability at […] pretreated for 3 hrs followed by replacement with fresh media and 6-OHDA addition and measured after 24 hrs by MTT assay; type: functional, cell-based; settings: dose 0.25 µM
[8] = target: T1, 5-hydroxytryptamine receptor 6 (Homo sapiens, UniProt P50406); test: Inverse agonist activity at YFP-tagged 5-HT6R (unknown origin) transfected in human NG108-15 cells assessed as inhibition of 5-HT6R-operated cdk5 signaling by measuring reduction in neurite length at 10 nM incubated for 24 hrs by epifluorescence based microscopic analysis; type: functional, cell-based; settings: filed as inverse agonist
[9] = target: T1, 5-hydroxytryptamine receptor 6; test: Neutral antagonist activity at human 5HT-6 receptor expressed in human NG108-15 cells coexpressing CAMYEL probe assessed as constitutive activity of receptor at Gs signaling by BRET analysis; type: functional, cell-based; settings: filed as antagonist
[10] = target: T1, 5-hydroxytryptamine receptor 6; test: Antagonist activity at human 5-HT6 receptor expressed in recombinant human 1321N1 cells assessed as inhibition of 5-carboxamidotryptamine stimulated cAMP accumulation incubated for 30 mins by TR-FRET assay; type: functional, cell-based; settings: filed as antagonist
[11] = target: Histamine H3 receptor (Homo sapiens) (UniProt Q9Y5N1); test: Binding affinity to H3 receptor (unknown origin) at 1 uM relative to control
[12] = test system: Astrocyte; test: as §1, with “prevention of actin cytoskeleton damage” for “increase in cell viability”, “phalloidin/Hoechst 33342 staining based fluorescence microscopic analysis” for “MTT assay”; type: functional, cell-based; settings: dose 0.25 µM
[13] = test system: Astrocyte; test: as §2, with “prevention of actin cytoskeleton damage” for “increase in cell viability”, “phalloidin/Hoechst 33342 staining based fluorescence microscopic analysis” for “MTT assay”; type: functional, cell-based; settings: dose 0.25 µM
[14] = target: Sigma non-opioid intracellular receptor 1 (Homo sapiens) (UniProt Q99720); test: Binding affinity to sigma1 receptor (unknown origin) at 1 uM relative to control
[15] = target: D(3) dopamine receptor (Homo sapiens) (UniProt P35462); test: Binding affinity to D3 receptor (unknown origin) at 1 uM relative to control
[16] = target: T1, 5-hydroxytryptamine receptor 6; test: Inverse agonist activity at human 5HT-6 receptor expressed in human NG108-15 cells coexpressing CAMYEL probe assessed as reduction in constitutive activity of receptor at Gs signaling by measuring reduction in basal cAMP level by BRET analysis; type: functional, cell-based; settings: filed as inverse agonist

SMILES	Activity [8]	Activity [9]	Kb [10] [µM]	Activity [11] [%]	Activity [14] [%]	Activity [15] [%]	Activity [16]	Activity [1]	Activity [2]	Activity [3]	Activity [4]	Activity [5]	Activity [6]	Activity [7]	Activity [12]	Activity [13]
CN(C)CCn1cc(S(=O)(=O)c2cccc(F)c2)c2cccnc21	–	–	–	–	–	–	–	inactive	inactive	inactive	inactive	inactive	inactive	inactive	–	–
O=S(=O)(c1cccc(Cl)c1)n1ccc2c(N[C@H]3CCNC3)nc3ccccc3c21	–	–	–	–	–	–	–	Active	Active	Active	Active	Active	Active	Active	–	–
O=S(=O)(c1cccc(N2CCNCC2)c1)n1cccc1-c1cccc(F)c1	Active	Active	0.0047	14.5	75.5	63.3	–	inactive	Active	Active	inactive	Active	Active	Active	Active	Active
O=S(=O)(c1ccccc1)c1cnc2c(N3CCNCC3)cccc2c1	–	–	–	–	–	–	–	inactive	inactive	inactive	inactive	inactive	inactive	inactive	–	–
O=S(=O)(c1ccccc1)n1cccc1-c1cccc(N2CCNCC2)c1	–	Active	0.0723	–	–	–	–	inactive	Active	Active	inactive	Active	Active	Active	–	–

More lines, main results first:

Activity [8]	Activity [9]	Kb [10] [µM]	Activity [11] [%]	Activity [14] [%]	Activity [15] [%]	Activity [16]	SMILES	Activity [1]	Activity [2]	Activity [3]	Activity [4]	Activity [5]	Activity [6]	Activity [7]	Activity [12]	Activity [13]
Active	Active	0.0021	–	–	–	–	O=S(=O)(c1cccc(N2CCNCC2)c1)n1cccc1-c1ccccc1	inactive	Active	Active	inactive	Active	Active	Active	–	–
–	Active	0.0162	–	–	–	–	O=S(=O)(c1cccc(NC2CCNCC2)c1)n1cccc1-c1ccccc1	–	–	–	–	–	–	–	–	–
–	–	–	–	–	–	Active	O=C(NC1CCNCC1)c1ccn(S(=O)(=O)c2cccc(Cl)c2)c1-c1cccc(F)c1	inactive	inactive	inactive	inactive	inactive	inactive	inactive	–	–

The source made the active and inactive calls. No cut-off for these calls is given here.
